# Results as given in PubChem BioAssay AID2012 (Sanford-Burnham Center for Chemical Genomics, 2009).
# The list shows a part of the results, in another mix than the full data. Some results for these compounds are left out of this collection, so the calls shown say nothing about other tests. Active and inactive are the calls of the source. No rule for the calls is given here.
# Target: Eukaryotic translation initiation factor 4H (Homo sapiens) (UniProt Q15056)
# Test: human eIF4H binding inhibitors, primary screen, translation initiation inhibitor project, biochemical, uHTS, fluorescence polarization (AID 2012)
# Conditions: eIF4H fluorescence polarization binding assay; at 35 µM; active compounds read high
row,Compound,inhibition
1,COc1cc(C(=O)NCC2(N(C)C)CCCCC2)c([N+](=O)[O-])cc1OC,inactive: 5.7%
2,CN(C)C1(CNC(=O)c2ccc(Br)cc2)CCCCC1,inactive: 3.4%
3,O=C(NCC1(N2CCCCC2)CCCCC1)c1cccc(Cl)c1,inactive: 3.4%
4,COc1cccc(C(=O)NCC2(N3CCCCC3)CCCCC2)c1,inactive: 3.3%
5,COc1ccc(Cl)cc1C(=O)NCC1(N(C)C)CCCCC1,inactive: -5%
6,O=C(OC1CN2CCC1CC2)C(CO)(c1ccccc1)c1ccccc1 (centres undefined),inactive: -1.2%
7,CN(C)c1cccc(C(=O)NCC2(N(C)C)CCCCC2)c1,inactive: -1.1%
8,CC(C)Oc1ccc(C(=O)NCC2(N(C)C)CCCCC2)cc1,inactive: 8%
9,COc1ccc(Br)c(C(=O)NCC2(N3CCCCC3)CCCCC2)c1,inactive: 0.1%
10,CN1[C@@H]2CC[C@H]1CC(OC(=O)C(O)(c1ccccc1)c1ccccc1)C2 (some centres undefined),inactive: -6%
11,O=C(NCC1(N2CCCCC2)CCCCC1)c1cc([N+](=O)[O-])ccc1Cl,inactive: 3.6%
12,Cc1ccc(C(=O)NCC2(N3CCCCC3)CCCCC2)cc1,inactive: 4%
13,CC(C)N1C(=O)CC2(CCN(CCOC(=O)C(O)(c3ccccc3)c3ccccc3)CC2)C1=O,inactive: -8.1%
14,CCN(CC)CC(C)C(C)OC(=O)C(O)(c1ccccc1)c1ccccc1 (centres undefined),inactive: -0.8%
15,COc1cc(SC)ccc1C(=O)NCC1(N(C)C)CCCCC1,inactive: 0%
16,Cc1ccccc1C(=O)NCC1(N2CCCCC2)CCCCC1,inactive: 3%
17,CN(C)c1ccc(C(=O)NCC2(N(C)C)CCCCC2)cc1,inactive: 10%
18,CN(C)C1CCCC1OC(=O)C(O)(c1ccccc1)c1ccccc1 (centres undefined),inactive: -6.7%
19,CCN1CCCC(OC(=O)C2(O)c3ccccc3C=Cc3ccccc32)C1 (centres undefined),inactive: 6.9%
20,Cc1cc(C(=O)NCC2(N3CCCCC3)CCCCC2)ccc1[N+](=O)[O-],inactive: -8.7%
21,O=C(NCC1(N2CCCCC2)CCCCC1)c1cccc(Br)c1,inactive: -1%
22,COc1ccc(C(=O)NCC2(N(C)C)CCCCC2)cc1,inactive: -4.6%
23,C=CCN1CCN(CCOC(=O)C(O)(c2ccccc2)c2ccccc2)CC1,inactive: -8.2%
24,O=C(NCC1(N2CCCCC2)CCCCC1)c1cc(F)c(F)cc1Cl,inactive: -11.2%
